Results: US20110319626A1, “Use of Atorvastatin Lactols as Medicaments” (BRADFORD PHARMA LIMITED, priority 2009, published 2011)

Biological target: T1, HMG-CoA reductase (Homo sapiens, UniProt P04035)
T1 construct: oxidation of NADPH by the catalytic subunit of HMGR in the presence of the substrate HMG-CoA; purchased Sigma-Aldrich CS1090 (kit); H8789 (HMG-CoA reductase)
T1 sequence (P04035 340-888 limits assumed): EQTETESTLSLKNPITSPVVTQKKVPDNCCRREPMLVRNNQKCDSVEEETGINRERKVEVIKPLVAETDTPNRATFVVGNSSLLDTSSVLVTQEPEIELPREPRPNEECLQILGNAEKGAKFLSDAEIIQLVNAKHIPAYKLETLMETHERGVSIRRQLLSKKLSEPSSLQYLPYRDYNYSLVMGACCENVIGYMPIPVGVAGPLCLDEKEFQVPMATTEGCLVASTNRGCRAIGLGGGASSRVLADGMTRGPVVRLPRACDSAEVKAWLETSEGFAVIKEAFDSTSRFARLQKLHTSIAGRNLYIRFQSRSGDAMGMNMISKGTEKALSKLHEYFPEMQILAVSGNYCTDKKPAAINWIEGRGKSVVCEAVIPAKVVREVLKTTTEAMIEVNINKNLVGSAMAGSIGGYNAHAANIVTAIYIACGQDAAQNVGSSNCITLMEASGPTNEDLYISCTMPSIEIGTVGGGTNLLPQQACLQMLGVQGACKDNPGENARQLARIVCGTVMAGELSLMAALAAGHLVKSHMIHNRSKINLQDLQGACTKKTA
Experiment: HMG-CoA Reductase assay kit (spectrophotometric NADPH absorbance at 340 nm)
Type: biochemical
Settings: NADPH and HMG-CoA both 200 μM, inhibitor concentrations varied from 0 nM to 50 nM, 37° C.
Protocol: All assays were carried out in a reaction buffer containing […] KxPO4 at pH 7.2, 1 mM EDTA, 500 mM KCl and 1 mg/ml BSA. The concentrations of NADPH and HMG-CoA were both 200 μM. The enzyme concentration used is unknown although this concentration is 10-fold lower than that of the stock solution purchased. […] Reactions were activated by the addition of enzyme and agitated for 12 seconds following the addition. Absorbance readings were then taken every 20 seconds for 600 seconds. In initial tests the concentration of each inhibitor was set at 50 nM to identify which compounds were the better inhibitors, compared to the known Pravastatin inhibitor. After these were identified, assays were carried out varying their concentrations from 0 nM to 50 nM allowing IC50 values to be calculated.
This is illustrated in the following reaction scheme:
HMG-CoA+2NADPH+2H^+→mevalonate+2NADP^++CoA-SH
Add a buffer to all samples. • b. […] Add the reconstituted NADPH to all samples. • d. Add Substrate Solution (HMG-CoA) to all samples. • e. […] Mix the samples thoroughly.
3. The kinetics programme was started immediately.

CC(C)c1c(C(=O)Nc2ccccc2)c(-c2ccccc2)c(-c2ccc(F)cc2)n1CC[C@@H](O)C[C@@H](O)CC(=O)O
IC50: 7 nM
